For 2 molecules, activity change, negative = active results are on record in PubChem BioAssay AID651965 (National Center for Advancing Translational Sciences (NCATS), 2013).

Amino acid sequences for entries named in this document (tags omitted).
UniProt P80244, whole entry: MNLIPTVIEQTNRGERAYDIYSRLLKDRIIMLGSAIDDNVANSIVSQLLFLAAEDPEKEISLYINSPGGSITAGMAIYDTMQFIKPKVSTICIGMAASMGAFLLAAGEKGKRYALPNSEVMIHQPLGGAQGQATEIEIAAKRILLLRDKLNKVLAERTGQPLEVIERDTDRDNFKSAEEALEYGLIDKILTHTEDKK

Only a part is listed here, and it is no random draw. Records with an inconclusive call do not appear. The source made the active and inactive calls. Calls follow the shape of the dose curve; as a rule, active = well fitted falling curve with a large enough effect; inconclusive = small, poorly fitted or top-dose-only effect; inactive = no such curve, though single readings can be large or run the other way.

The assay addresses ATP-dependent Clp protease proteolytic subunit (Bacillus subtilis (strain 168)) (UniProt P80244). As to the kind of experiment: qHTS Assay for Activators of ClpP. Also: the source files actives as falling curves though it sought activators and does not explain the sign; nearly all actives have a fitted effect of over 65% in size. The following applies: purified B. subtilis ClpP, FRET peptide cleavage, 20 min; at 57.5 µM (top of the series). In general terms: Quantitative high-throughput screening tests each substance at several concentrations.
As for `CCC(=O)N(c1ccccc1)C1(COC)CCN(CCc2cccs2)CC1`, the activity change, negative = active is inactive: 0.927%.

As for `CCC(=O)N(c1ccccc1)C1(COC)CCN(CCn2nnn(CC)c2=O)CC1`, the activity change, negative = active was inactive: -1.47%.
